Parent scFvs against a spike HR2 peptide, AlphaSeq assay 2

Target: peptide PDVDLGDISGINAS, taken from heptad repeat 2 (HR2) of SARS-CoV-2 spike.

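The three antibodies came from panning a naive human phage display library on the peptide; each was carried in both assays of the study as a common reference. Ab-14 and Ab-95 are built VH, linker, VL, and Ab-91 VL, linker, VH. In AlphaSeq, yeast of one mating type display the scFv and yeast of the other type display the target. Binding brings cells together so that they mate, and sequencing counts the barcode pairs among the diploids. Scores were corrected for input abundance and mapped to Kd with protein pairs of known affinity run in the same pool. Mating was done three times.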

Values are log10 of the apparent Kd in nM; lower means stronger binding. Entries in the file, in the order shown: AAYL51_1, MIT_91_LH_scFV; AAYL52_1, MIT_95_HL_scFV; MIT_14_HL_scFV. Names that start with MIT are the reference entries, the others are copies inside a library.

* Ab-91 QAVLTQPSSLSASPGASVSLTCTLRSGINVGTYRIYWYQQKPGSPPQYLLRYKSDSDKQQGSGVPSRFSGSKDASANAGILLISGLQSEDEADYYCMIWHSSAWVFGGGTKLTVLGGGGSGGGGSGGGGSEVQLVESGGGLVQPGRSLRLSCAASGFTFDDYAMHWVRQAPGKGLEWVSGISWNSGSIGYADSVKGRFTISRDNAENSLYLQMNSLRAEDTALYYCAKVGRGGGYFDYWGQGTLVTVSS -> 1.02, 1.15, 0.46; 1.78, 1.94, 1.84
* Ab-95 EVQLVESGAEVKKPGASVKVSCKASGYTFTSYGISWVRQAPGQGLEWMGWISAYNGNTNYAQKLQGRVTMTTDTSTSTAYMELRSLRSDDTAVYYCARVGRGVIDHWGQGTLVTVSSGGGGSGGGGSGGGGSSSELTQDPAVSVALGQTVRITCEGDSLRYYYANWYQQKPGQAPILVIYGKNNRPSGIADRFSGSNSGDTSSLIITGAQAEDEADYYCSSRDSSGFQVFFGAGTKLTVL -> 2.15, 2.20, 2.39; 2.26, 2.25, 2.41
* Ab-14 EVQLVETGGGLVQPGGSLRLSCAASGFTLNSYGISWVRQAPGKGPEWVSVIYSDGRRTFYGDSVKGRFTISRDTSTNTVYLQMNSLRVEDTAVYYCAKGRAAGTFDSWGQGTLVTVSSGGGGSGGGGSGGGGSDVVMTQSPESLAVSLGERATISCKSSQSVLYESRNKNSVAWYQQKAGQPPKLLIYWASTRESGVPDRFSGSGSGTDFTLTISSLQAEDAAVYYCQQYHRLPLSFGGGTKVEIK -> 1.22, 1.08, 0.76

Where one sequence has several entries in the source, the replicates are listed entry by entry, parted by semicolons. Empty control strains, which show no peptide, gave a signal in 25% of pairings with all scFvs of this assay; the median was 4.12 and 95% of these signals were weaker than 2.98. No background was subtracted.

Values reported by Engelhart et al. 2022, doi:10.1038/s41597-022-01779-4 (FLAb copy).